Results published in ChEMBL document CHEMBL1944549, “Small molecule inhibitors of BRAF in clinical trials” (Bioorg Med Chem Lett, 2012).

The chains behind the UniProt entries cited, without tags or fusion partners.
UniProt P15056, whole entry: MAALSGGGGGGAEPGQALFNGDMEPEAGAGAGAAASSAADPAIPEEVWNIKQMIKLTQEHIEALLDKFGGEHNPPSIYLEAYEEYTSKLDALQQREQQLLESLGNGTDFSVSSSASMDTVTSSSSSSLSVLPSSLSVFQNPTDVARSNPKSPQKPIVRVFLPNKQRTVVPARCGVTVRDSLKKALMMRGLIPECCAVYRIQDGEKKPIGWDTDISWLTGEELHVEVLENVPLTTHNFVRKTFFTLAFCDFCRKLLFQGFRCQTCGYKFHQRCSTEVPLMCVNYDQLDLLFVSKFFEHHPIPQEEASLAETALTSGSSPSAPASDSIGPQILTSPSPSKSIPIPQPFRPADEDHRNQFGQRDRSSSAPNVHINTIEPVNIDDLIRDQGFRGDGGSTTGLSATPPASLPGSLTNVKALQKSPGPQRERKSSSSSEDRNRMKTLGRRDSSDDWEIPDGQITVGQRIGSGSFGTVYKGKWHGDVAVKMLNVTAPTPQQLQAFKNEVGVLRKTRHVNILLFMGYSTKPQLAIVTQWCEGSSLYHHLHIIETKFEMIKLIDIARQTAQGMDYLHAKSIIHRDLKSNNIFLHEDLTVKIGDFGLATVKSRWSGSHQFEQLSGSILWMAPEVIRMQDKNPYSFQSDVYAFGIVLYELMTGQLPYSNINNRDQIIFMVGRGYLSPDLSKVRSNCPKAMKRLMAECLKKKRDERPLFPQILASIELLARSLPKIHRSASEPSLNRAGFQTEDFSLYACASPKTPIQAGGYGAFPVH

Columns and labels:
Assay type in all cases: cell-based
[1] = target: T1, Serine/threonine-protein kinase B-raf (Homo sapiens, UniProt P15056); experiment: Inhibition of B-Raf-mediated Erk phosphorylation in human HFF cells after 60 mins by Western blot analysis
[2] = target: T1, Serine/threonine-protein kinase B-raf; experiment: Inhibition of B-Raf-mediated Erk phosphorylation in human HMEC cells after 60 mins by Western blot analysis
[3] = target: T1, Serine/threonine-protein kinase B-raf; experiment: Inhibition of B-Raf-mediated Erk phosphorylation in human PREC cells after 60 mins by Western blot analysis

Measured: EC50

CN(C)CCOc1ccc(-c2nc(-c3ccncc3)c(-c3ccc4c(c3)CC/C4=N\O)[nH]2)cc1 [SB590885]
1100 nM: [1] | [2] | [3]
